Assays:
Format in all cases: protein-complex assay
Casein kinase II [1] = molecular target: Casein kinase II (Homo sapiens, UniProt P19784+P67870+P68400, I174A/V66A); assay: Inhibition of CK2 V66A, I174A mutant
Casein kinase II [2] = molecular target: Casein kinase II (Homo sapiens, UniProt P19784+P67870+P68400, I174A); assay: Inhibition of CK2 I174A mutant
Casein kinase II [3] = molecular target: Casein kinase II (Homo sapiens, UniProt P19784+P67870+P68400, V66A); assay: Inhibition of CK2 V66A mutant

Chains of the proteins cited; added tags and fusions are not shown. Lines headed by an entry give the natural chain unless they say otherwise; changes in a name come on top. Residues count along the entry.
UniProt P19784: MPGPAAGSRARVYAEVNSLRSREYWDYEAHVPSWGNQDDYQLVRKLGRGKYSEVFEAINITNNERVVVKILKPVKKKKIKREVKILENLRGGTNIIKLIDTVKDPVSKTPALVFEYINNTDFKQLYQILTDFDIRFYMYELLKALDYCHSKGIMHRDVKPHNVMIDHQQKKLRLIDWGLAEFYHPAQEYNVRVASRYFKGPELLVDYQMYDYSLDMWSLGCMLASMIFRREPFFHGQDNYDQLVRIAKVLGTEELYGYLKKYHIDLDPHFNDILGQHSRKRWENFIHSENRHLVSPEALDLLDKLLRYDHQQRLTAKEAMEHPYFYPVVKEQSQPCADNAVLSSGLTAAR
UniProt P67870, 2-215 limits assumed: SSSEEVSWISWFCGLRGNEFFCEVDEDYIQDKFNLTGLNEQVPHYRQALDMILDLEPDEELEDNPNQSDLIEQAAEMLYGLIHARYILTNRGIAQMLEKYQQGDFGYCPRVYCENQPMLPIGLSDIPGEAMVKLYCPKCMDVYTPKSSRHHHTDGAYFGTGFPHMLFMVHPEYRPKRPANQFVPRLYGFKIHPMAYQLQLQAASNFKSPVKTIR
UniProt P68400, whole entry, stated change not applied: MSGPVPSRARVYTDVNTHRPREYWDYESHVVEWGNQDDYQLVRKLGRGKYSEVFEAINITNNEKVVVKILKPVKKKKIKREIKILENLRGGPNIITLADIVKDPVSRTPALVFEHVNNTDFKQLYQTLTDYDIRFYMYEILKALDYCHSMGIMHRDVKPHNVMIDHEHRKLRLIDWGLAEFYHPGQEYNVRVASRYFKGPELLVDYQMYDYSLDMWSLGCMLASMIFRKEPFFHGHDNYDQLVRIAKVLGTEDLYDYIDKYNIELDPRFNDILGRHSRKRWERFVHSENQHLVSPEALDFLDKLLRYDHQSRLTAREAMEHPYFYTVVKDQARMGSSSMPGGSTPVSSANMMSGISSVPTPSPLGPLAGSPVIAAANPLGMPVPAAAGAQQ

CN(C)c1nc2c(Br)c(Br)c(Br)c(Br)c2[nH]1
IC50 (Casein kinase II [1]): 5.79 µM
IC50 (Casein kinase II [2]): 3.3 µM
IC50 (Casein kinase II [3]): 1.78 µM
